# Nrf2 inh – blocks Nrf2 signaling. A549 ARE-Fluc reporter, luciferase luminescence, 18-24 h. Potency, µM (top dose mostly 46 µM), actives largely listed as inhibitors. AID 504444. 360,000 tested, 2.1% active; note: nearly all actives have a fitted effect of over 60% in size
#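 Concentration-response testing used A549 ARE_Fluc cells at 5000 cells/well. Following an 18-24 h compound incubation, viability was read by fluorescence (Ex 405/Em 525) and luciferase output by luminescence.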
# Mito fusion yeast – blocks mitochondrial division or promotes mitochondrial fusion. S. cerevisiae fusion-defective mutant growth rescue, CellTiterGlo 48 h. Potency, µM (doses to about 46.1 µM), usual class: activators. 320,000 tested, 0.23% active. AID 485298; note: nearly all actives have a fitted effect of over 45% in size
#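 Yeast fusion mutant, YPEG (non-fermentable carbon), compound, 48 h at 37C non-permissive; CellTiterGlo added, 10 min RT, luminescence read. Rescued growth = division inhibition.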
# A549 viability – A549 cytotoxicity, counter-screen for Nrf2 inhibitors; A549 ARE-Fluc cells, CellTiter-Fluor viability, 18-24 h; Potency, µM (doses to about 46 µM), usual class: inhibitors; 390,000 tested, 0.16% active
#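 Cytotoxicity counterscreen: CellTiter-Fluor fluorescence was measured in A549 ARE_Fluc cells after 18-24 h of compound exposure in a concentration series. The subsequent BugLite luminescent read reports ARE-luciferase activity.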
# miR-21 FLuc – miR-21 reporter, rising signal. HeLa miR-21 FLuc reporter, luciferase, 48 h. Potency, µM (titrated, usually from 38.3 µM). 340,000 tested, under 10 active. AID 2288; active = well fitted rising curve with a large enough effect; inconclusive = small, poorly fitted or top-dose-only effect; inactive = no such curve, though single readings can be large or run the other way;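 also: miR-21 action dims this reporter so a rising signal means less miR-21 action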
#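 Using DMEM plus 10% FBS, HeLa miR-21-FLuc cells are incubated with test compounds (final up to about 40uM) for 48 hours; firefly luciferase signal is then imaged following reagent-mediated lysis.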
# Nrf2 activator – activators of Nrf2 (ARE) signaling; AREc32 ARE-luciferase reporter (MCF7-derived line), luminescence, 24 h; Potency, µM (highest dose often 46.1 µM), usual class: activators; 410,000 tested, 0.31% active; note: nearly all actives have a fitted effect of over 65% in size
#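 ARE-driven firefly luciferase activity in AREc32 cells measured after a 24 hr compound exposure at 37 deg C, using Steady-Glo reagent and a 30 min room-temperature hold.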
# Glioma ERSR ind – induces the endoplasmic reticulum stress response in human glioma cells; 420,000 tested, 0.02% active; U87-MG GRP78 promoter luciferase reporter, 16 h; AID 602332; Potency, µM, most hits filed as activators; note: series mostly up to about 76 µM; nearly all actives have a fitted effect of over 35% in size
#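 Stably transfected U87-MG glioma cells carrying a GRP78-based luciferase sensor; 16 h compound incubation. Luminescence end-point read 10 min after Bright-Glo addition at room temperature.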
# Numbers stand for hits; – = inactive; ? = inconclusive; · = not tested or not shown; ! = not active in a repeat; [ ] = another dose, or the depositor's remark. An excerpt weighted towards active compounds, which were near 2.3% of everything screened. Unless noted, calls come from the whole dose curve; as a rule, active = well fitted curve in the direction sought with a large enough effect; inconclusive = small, poorly fitted or top-dose-only effect, or another doubt; inactive = no such curve, though single readings can be large; an effect the other way counts as inactive or inconclusive.
SMILES,Nrf2 inh,Mito fusion yeast,A549 viability,miR-21 FLuc,Nrf2 activator,Glioma ERSR ind
COCCN(Cc1cc2cc3c(cc2nc1Cl)OCO3)C(=O)Nc1ccc(F)cc1,13µM,–,–,–,–,–
COCCN(Cc1cc2cc3c(cc2nc1Cl)OCO3)C(=O)Nc1ccccc1OC,–,–,–,–,–,–
COCC(=O)N(CCN(C)C)Cc1cc2cc3c(cc2nc1Cl)OCO3,–,–,–,–,–,–
COCCN(Cc1cc2cc3c(cc2nc1Cl)OCO3)C(=O)Nc1ccc(OC)cc1,7.3µM,–,–,–,–,–
O=[N+]([O-])c1ccc(N2CCN(Cc3cccc([N+](=O)[O-])c3)CC2)cc1,21µM,–,?,–,–[9.22 µM],–
COc1cccc(CN2CCN(Cc3cc(OC)c(OC)cc3[N+](=O)[O-])CC2)c1,–,–,–,–,–,–
COc1cc(CN2CCN(Cc3ccc([N+](=O)[O-])cc3)CC2)c([N+](=O)[O-])cc1OC,21µM,–,–,–,–,–
Cc1ccc(OCc2ccc(-c3nc(C#N)c(NCc4cccnc4)o3)o2)cc1,?,·,–,–,–,–
COc1ccc(OCc2ccc(-c3nc(C#N)c(NCc4ccccc4)o3)o2)cc1,?,·,?,–,–,–
COc1ccc(/C=C/c2nc(C#N)c(NCc3ccc(C)cc3)o2)cc1OC,?,·,–,?,–,–
COc1ccc(CNc2oc(/C=C/c3cc(OC)c(OC)c(OC)c3)nc2C#N)cc1,–,·,–,–,–,32µM
COc1ccc(CCNc2oc(-c3ccc(OC)c(OC)c3)nc2C#N)cc1,23µM,–,–,–,–,–
Cc1ccccc1OCc1ccc(-c2nc(C#N)c(NCc3cccnc3)o2)o1,12µM,·,–,–,–,–
COc1ccc(-c2nc(C#N)c(NCCCN(C)C)o2)cc1OC,–,–,–,–,–,–
COc1ccc(CNc2oc(-c3ccc(COc4ccccc4C)o3)nc2C#N)cc1,21µM,·,–,–,–,–
COc1ccc(N2CC(C(=O)Nc3ccc4c(c3)OCO4)CC2=O)cc1 (configuration not stated),–,–,–,–,–,–
Cc1ccc(C)c(S(=O)(=O)N2CCN(C(=O)CCNS(=O)(=O)c3ccccc3)CC2)c1,–,–,–,–,–,–
CNC(=O)C1=NCCCc2cc(OC)c(OC)cc21,–,–,–,–,–,–
Cc1c(NC(=O)c2ccc(Cl)cc2)cc(C(C)C)c(O)c1S(=O)(=O)c1ccc(Cl)cc1,–,·,–,–,–,–
O=[N+]([O-])c1ccc(N/N=C2\CC3CC=CC23)c([N+](=O)[O-])c1 (configuration not stated),23µM,–,?,–,–,–
CCCCCCCCN1C(=O)[C@H](CC(=O)NCC23CC4CC(CC(C4)C2)C3)C[C@@]2(C(=O)OCC)CCCC=C12,·,·,·,·,–,·
O=c1c2ccccc2nc(COc2ccccc2)n1/N=C/c1ccc(O)cc1O,26µM,–,–,–,–,–
c1cc2cc(-c3c(-c4ccc5c(c4)OCO5)noc3-c3ccsc3)ccc2[nH]1,–,–,–,–,–,–
Cc1onc(-c2ccc3c(c2)OCO3)c1-c1ccc2[nH]ccc2c1,15µM,–,–,–,–,–
c1ccc(-c2cnc(-c3ccccc3)nn2)cc1,–,·,–,·,2.8µM,–
SMILES,Nrf2 inh,Mito fusion yeast,A549 viability,miR-21 FLuc,Nrf2 activator,Glioma ERSR ind
c1ccc(-c2cnc(-c3ccccn3)nn2)cc1,?,·,–,·,?,–
Cc1nn(CCc2nn[nH]n2)c2nc(-c3ccc(Br)cc3)cc(C(F)(F)F)c12,21µM,–,?,–,–,–
Cc1ccc2c(c1)=N/C(=N\c1[nH]c(O)c3ccccc13)N=2,·,·,·,·,–,?
Oc1[nH]c(N=C2N=c3ccccc3=N2)c2ccccc12,?,–,?,–,5.6µM,–
Fc1ccc(CN2CCN(c3ncnc4scc(-c5ccccc5)c34)CC2)cc1,23µM,–,–,–,–,–
COc1ccccc1N1CCN(Cc2nc(-c3ccc(F)cc3)oc2C)CC1,?,–,–,–,–,–
COc1ccc(-c2csc3ncnc(N4CCN(c5ccccc5OC)CC4)c23)cc1,23µM,–,?,?,–,–
Cc1ccc(-c2csc3ncnc(N4CCN(Cc5ccccc5)CC4)c23)cc1,23µM,–,–,–,–,–
COc1ccc(-c2nc(CN3CCN(c4ccccc4OC)CC3)c(C)o2)cc1,18µM,–,?,–,–,–
Fc1ccc(-c2csc3ncnc(N4CCN(Cc5ccccc5)CC4)c23)cc1,–,–,–,–,–,–
O=P(O)(O)C(Sc1ccc(Cl)cc1)P(=O)(O)O,·,·,·,·,·,–
COc1cccc(CNC(=O)CCC2CCCN(C(=O)c3ccccc3N(C)C)C2)c1 (configuration not stated),–,–,–,–,–,–
CC1CCN(c2nc3nonc3nc2Nc2ccc(F)cc2)CC1,9.2µM,–,?,–,–,–
CC1CCCN(c2nc3nonc3nc2Nc2ccccc2F)C1 (configuration not stated),?,–,–,–,–,–
COc1ccc(Nc2nc3nonc3nc2N2CCCCC2)cc1,26µM,–,–,–,–,–
COc1ccc(NC(=O)c2ccc3c(c2)S(=O)(=O)N=C2CCCCCN23)cc1S(N)(=O)=O,–,·,–,·,–,–
CCN(CC)C(=O)CSc1cn(CC(=O)N2CCCCCC2)c2ccccc12,–,·,–,–,–,–
O=C(NCc1ccc(F)cc1)c1ccc(S(=O)(=O)Nc2cccc(C(F)(F)F)c2)cc1,23µM,–,–,–,–,–
COc1ccc(-c2csc(NC(=O)c3ccccc3NS(=O)(=O)c3ccc(C)cc3)n2)cc1,16µM,?,?,–,–,–
COc1ccc(-c2csc(NC(=O)C3=NN(c4ccccc4)C(=O)CC3)n2)cc1,21µM,–,?,?,–,–
COc1ccc(C2Nc3ccccc3C(=O)N2NS(C)(=O)=O)c(OC)c1 (configuration not stated),–,–,–,–,–,–
CCOCCn1c(CN2CCN(c3ccc(OC)cc3)CC2)nc2c1c(=O)n(C)c(=O)n2C,–,·,–,·,–,–
COc1ccccc1C1c2c(ncn(-c3ccccc3)c2=N)Oc2ccc3ccccc3c21 (configuration not stated),23µM,·,21µM,·,·,·
N=c1c2c(ncn1-c1ccccc1)Oc1ccc3ccccc3c1C2c1ccc2c(c1)OCO2 (configuration not stated),21µM,·,15µM,·,·,·
COc1cccc(C2c3c(ncn(-c4ccccc4)c3=N)Oc3ccc4ccccc4c32)c1 (configuration not stated),15µM!,·,15µM!,·,·,·
